According to patent US9975933B2:

Target: FcγRIIIb (Homo sapiens (Human)) (UniProt O75015)
Experiment: SPR

Kd: 8.23 µM
Substance: Cetuximab (antibody)
